Measurements: publication PMC6398935 (The Biochemical journal, 2016)

Target: T1, factor H binding protein (fHbp) variant 1.1, wild type (Neisseria meningitidis serogroup B …, UniProt Q9JXV4)
T1 construct: source: E. coli BL21(DE3), purified
Assay: SPR
Details: both partners purified

B1: murine anti-fHbp monoclonal antibody JAR5 (IgG2b) (antibody, V domains shown)
VH: QVQMQQPGAELVKPGASVKLSCKASGYTFISYWMHWVKQRPGRGLEWIGRIAPDTGIIYYNEKFKNKATLTVDTPSSTAYMQLNSLTSEDSAVYYCARYLKYDGSTYRFDYWGQGTTLTVSS
VL: DIVMTQAAPSVPVTPGESVSISCRSSKSLLHSNGNTYLFWFLQRPGQSPQLLIYRMSNLASGVPDRFSGSGSGTSFTLRISRVEAEDVGVYYCMQHLEYPYTFGGGTKLEIK
Kd: 190 pM
